# Yeast mating assay 1: variants of the scFv Ab-14

Data: MIT Lincoln Laboratory AlphaSeq set, Engelhart et al. 2022, doi:10.1038/s41597-022-01779-4, as distributed in FLAb.

Target peptide (SARS-CoV-2 spike, HR2 region): PDVDLGDISGINAS

Parent scFv Ab-14: VH joined to VL by the linker GGGGSGGGGSGGGGS. Changes lie in the heavy chain CDRs alone.
VH: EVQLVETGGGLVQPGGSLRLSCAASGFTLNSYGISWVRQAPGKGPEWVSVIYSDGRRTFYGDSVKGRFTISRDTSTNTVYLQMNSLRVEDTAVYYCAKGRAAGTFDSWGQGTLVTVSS
VL: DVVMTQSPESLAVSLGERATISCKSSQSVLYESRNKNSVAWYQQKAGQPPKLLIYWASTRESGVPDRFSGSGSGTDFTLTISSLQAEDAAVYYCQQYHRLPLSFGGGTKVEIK

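The parent was found by panning a naive human phage display library on the peptide. The library (AAYL49) carries one to three amino acid substitutions per variant, with no insertions or deletions. The scFvs were displayed on barcoded MATa yeast, the peptide on MATalpha yeast. Pairs that bind mate more often; barcode pairs of the diploids are counted by sequencing. Each replicate has its own calibration line, from reference interactions of the BCL2 family. Each pool was mated in three replicate cultures.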

Each variant is given by its three heavy chain CDRs, as the data file delimits them; those of the parent are GFTLNSYGIS, VIYSDGRRTFYGDSVK, GRAAGTFDS.
This list gathers variants with a substitution at K65 (VH, numbered from residue 1).
The Kd shown is the geometric mean over detected replicates; a lower Kd is a better binder.
"not detected" means that the variant was in the library but no mating with the target was seen in any replicate; the authors take this as a sign of poor binding, and no number exists.
Three control strains display no target. For library AAYL49, 15% of the pairings with them gave a signal, with a median of 11 µM and one signal in twenty below 680 nM, so weak values seen in few replicates may be background.
Parent in this assay: reference entry 4.4 nM, copy in this library 13 µM (one replicate of three).

CDR-H1	CDR-H2	CDR-H3	Kd	seen in
GFTLNSYGIS	VIYSDGRRTIYGDSVD	GRPAGTFDS	not detected	0 of 3
GFTLNSYGIS	VIYSQGRRTFYGDSVL	GRLAGTFDS	120 µM	1 of 3
GFTLNSYGIG	VIYSDGRRTFYGDSVE	GRAAGTNDS	not detected	0 of 3
HFTLNSYGIS	VIYSDGRRTFYGDSVV	GRAAGTFDS	140 nM	1 of 3
GFTLNSYGIS	VIFSDGRRTFYGDSVC	GRAAGTFDS	720 nM	1 of 3
GFTLNSYGIS	VIYSDGRRTFYGDSVA	GRAAGTFDS	36 nM	3 of 3
GFTLNSYGIS	VIYSDDRITFYGDSVR	GRAAGTFDS	not detected	0 of 3
GFTLNSYHIS	VIYSDGRRTFYGDSVP	CRAAGTFDS	not detected	0 of 3
GFTLNSYGIS	VIYSDGRRTFYGDSVL	GRKAGTFDS	440 nM	3 of 3
GFTLNSYGIS	VPYSDGRRTFYGDSVL	GRAAGTFDS	160 µM	2 of 3
GFTLNSYGIS	QIYSDGRRTFYGDSVP	GRAAGTFMS	not detected	0 of 3
GFKLNSYGIS	VIYLDGRRTFYGDSVI	GRAAGTFDS	25 µM	1 of 3
GFTLNSYGIS	VIYSDGRKTFYGDSVD	GRAKGTFDS	180 µM	1 of 3
TFTLNSYGIS	VIYSDGRRTFYGMSVD	GRAAGTFDS	91 µM	1 of 3
GFTLSSYGIS	VIYSDGRRTFYVDSVN	GRAAGTFDS	86 nM	3 of 3
GPTLNSYGIS	VIYSDGRRTPYGDSVL	GRAAGTFDS	4.5 µM	1 of 3
GFTLNSYGIS	VIYSDGRRAHYGDSVM	GRAAGTFDS	5.8 nM	3 of 3
GFTLNPYGIS	VIYSTGRRTFYGDSVW	GRAAGTFDS	not detected	0 of 3
GFTLNSYGIS	VIYSDGRRTFYVDSVL	GRMAGTFDS	430 nM	3 of 3
GFTLNAYGIS	VIYSDGRRTFYGDSVA	GRAAGTQDS	not detected	0 of 3
GFTLNSYGIS	VIYSDGRRTFYGDSVM	IRAAGTFDS	not detected	0 of 3
QFILNSYGIS	VIYSDGRRTFYGDSVP	GRAAGTFDS	not detected	0 of 3
GFTLASYGIS	AIYSDGRRTFYGDSVH	GRAAGTFDS	not detected	0 of 3
GFTLNSYIIS	VIYSFGRRTFYGDSVN	GRAAGTFDS	not detected	0 of 3
GFTLNSYGIS	VIYSDGRRTFYGDSVM	GRAAGTFDC	130 nM	3 of 3
GFTLNSYGVS	VIYSDARRTFYGDSVE	GRAAGTFDS	not detected	0 of 3
GFTLNSYGIS	VIYSDGRDTFYGDYVT	GRAAGTFDS	not detected	0 of 3
GFTLNSYGIS	VIYSDLRRTFYGDSVF	GRAAGTFDQ	30 µM	2 of 3
GFTLNSYGYS	VIYSDGRRTFYGDSVH	GRAGGTFDS	not detected	0 of 3
GFTLNSFGIS	VIYSDGYRTFYGDSVC	GRAAGTFDS	1.7 µM	1 of 3
GFTLNSYGIS	VIYSDVRRTFYGDSKR	GRAAGTFDS	not detected	0 of 3
GFTLNSYGIS	VIYSDGRRTFYGDSVN	GRADGTFDW	not detected	0 of 3
GFTLNSYGIS	VIYSDGRRTFYGDSVR	GRAASTFDS	4.3 nM	3 of 3
GFTLNSYGIS	VIYSDGRRTFYGDSVD	LRAAGTFDI	not detected	0 of 3
GWTLNSYGIS	VIYSDGRRTFFGDSVD	GRAAGTFDS	not detected	0 of 3
KFTLNSYGIS	VIPSDGRRTFYGDSVS	GRAAGTFDS	not detected	0 of 3
GFTLNSRGIS	VIYSDGRRTFYGDSVL	GRAGGTFDS	35 µM	1 of 3
GFTLESYGIM	VIYSDGRRTFYGDSVI	GRAAGTFDS	1.9 µM	1 of 3
GFTLNSYGIS	VIYSDGRRTFYGDSVC	GRSAGTCDS	29 nM	3 of 3
GFTLNSYGIS	VIYSDGRRTFYGDSYA	IRAAGTFDS	not detected	0 of 3
KFTLNSYGIS	VIYSDGRRTFYGDSVL	GRGAGTFDS	37 nM	3 of 3
GFTLNSKGIS	VIYSDGRRTFYGDSVP	GRAAGNFDS	14 µM	3 of 3
GFTLNSYGIS	VIYSDGRRTFYGDSNI	GRAAGTFDS	not detected	0 of 3
GFTLNSYGIS	VIYSDGCRTFYGDSVV	RRAAGTFDS	16 µM	3 of 3
GFTLNSYGTS	VIYSDGLRTFYGDSVA	GRAAGTFDS	not detected	0 of 3
GFTLNSYGIS	TIYSDGRRTFYGSSVH	GRAAGTFDS	4.8 µM	2 of 3
GFTLNSYGIL	VIYSDGRRTFYGDSVA	GRAAGTFDS	17 µM	1 of 3
GFTKNSYGTS	VIYSDGRRTFYGDSVH	GRAAGTFDS	not detected	0 of 3
GFTLNSYGIS	VIYSDGRRTFYGDMVC	GRAAGTFDS	140 nM	1 of 3
GFTLNSYGIS	VIYSDGRRTFYGDSVE	GRACGTHDS	not detected	0 of 3
GFTLNSYGIS	LIYSDGRCTFYGDSVR	GRAAGTFDS	800 µM	1 of 3
DFTLNSYGIS	VIYSDGRRHFYGDSVQ	GRAAGTFDS	1.5 µM	2 of 3
HFTLNSYGIS	VIYSDGRRTFYGDSVF	GRAFGTFDS	not detected	0 of 3
GFTLNSYGIS	VIYSDGLRTFYGDSVA	GQAAGTFDS	7.2 nM	3 of 3
GFTLNSYGIS	VIYSDQRRTFYGDSVS	GRAAGTFDH	13 µM	2 of 3

Picked from the list: the 3 lowest averages where every replicate gave a value.

CDR-H1,CDR-H2,CDR-H3,Kd,seen in
GFTLNSYGIS,VIYSDGRRTFYGDSVR,GRAASTFDS,4.3 nM,3 of 3
GFTLNSYGIS,VIYSDGRRAHYGDSVM,GRAAGTFDS,5.8 nM,3 of 3
GFTLNSYGIS,VIYSDGLRTFYGDSVA,GQAAGTFDS,7.2 nM,3 of 3